{"sequences": {"note": "Protein sequences, listed by entry. Tags and fused reporters are not part of them. Residues count along the entry.", "UniProt Q9Y5Z0, 63-518": "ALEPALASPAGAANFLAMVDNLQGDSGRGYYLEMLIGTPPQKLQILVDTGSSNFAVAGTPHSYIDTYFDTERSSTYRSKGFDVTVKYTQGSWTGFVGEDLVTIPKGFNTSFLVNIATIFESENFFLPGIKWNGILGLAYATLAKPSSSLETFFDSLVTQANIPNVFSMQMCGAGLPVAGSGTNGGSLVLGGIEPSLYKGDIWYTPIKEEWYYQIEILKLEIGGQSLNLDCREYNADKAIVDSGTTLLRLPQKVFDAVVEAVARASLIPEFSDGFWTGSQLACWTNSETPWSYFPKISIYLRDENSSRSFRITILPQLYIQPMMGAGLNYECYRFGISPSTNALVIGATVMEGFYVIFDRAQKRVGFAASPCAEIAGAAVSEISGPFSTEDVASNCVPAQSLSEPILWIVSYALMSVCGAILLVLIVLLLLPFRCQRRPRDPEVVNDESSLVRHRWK"}, "source": "patent US9751886B2", "about": "“4-amino-6-phenyl-6,7-dihydro[1,2,3]triazolo[1,5-A]pyrazine derivatives as inhibitors of beta-secretase (BACE)” (Janssen Pharmaceutica NV, priority 2013, dated 2017)", "target": "recombinant BACE2 protein (Homo sapiens (Human), UniProt Q9Y5Z0)", "assay": "BACE2 Biochemical FRET based assay", "details": "0.4 μg/ml BACE2, 10 μM substrate, 450 min, pH 5.0", "text": "This assay is a Fluorescence Resonance Energy Transfer Assay (FRET) based assay. The substrate for this assay contains the ‘Swedish’ Lys-Met/Asn-Leu mutation of the amyloid precursor protein (APP) beta-secretase cleavage site. This substrate also contains two fluorophores: (7-methoxycoumarin-4-yl) acetic acid (Mca) is a fluorescent donor with excitation wavelength at 320 nm and emission at 405 nm and 2,4-Dinitrophenyl (Dnp) is a proprietary quencher acceptor. […] Upon cleavage by the beta-secretase, the fluorophore Mca is separated from the quenching group Dnp, restoring the full fluorescence yield of the donor. The increase in fluorescence is linearly related to the rate of proteolysis.\nBriefly in a 384-well format recombinant BACE2 protein in a final concentration of 0.4 μg/ml is incubated for 450 minutes at room temperature with 10 μM substrate in incubation buffer (50 mM Citrate buffer pH 5.0, 0.05% PEG, no DMSO) in the absence or presence of compound. Next the amount of proteolysis is directly measured by fluorescence measurement at T=0 and T=450 (excitation at 320 nm and emission at 405 nm). Results are expressed in RFU (Relative Fluorescence Units), as difference between T450 and TO.", "data": [{"smiles": "C[C@@]1(c2cc(NC(=O)c3ccc(F)cn3)cc(F)c2F)Cn2nncc2C(N)=N1", "note": "[Compound 8, N-{3-[(6R)-4-Amino-6-methyl-6,7-dihydro[1,2,3]triazolo[1,5-a]pyrazin-6-yl]-4,5-difluorophenyl}-5-fluoropyridine-2-carboxamide]", "values": [{"measurement": "BACE2 Biochemical FRET based assay pIC50", "value": 8.52}]}]}
